Laboratory results: PMC3465557, “Mixed antagonistic effects of the ginkgolides at recombinant human ρ1 GABAC receptors” (Neuropharmacology, 2012)

Amino acid sequences for entries named in this document (tags omitted). Residues count along the entry.
UniProt P24046, 22-479: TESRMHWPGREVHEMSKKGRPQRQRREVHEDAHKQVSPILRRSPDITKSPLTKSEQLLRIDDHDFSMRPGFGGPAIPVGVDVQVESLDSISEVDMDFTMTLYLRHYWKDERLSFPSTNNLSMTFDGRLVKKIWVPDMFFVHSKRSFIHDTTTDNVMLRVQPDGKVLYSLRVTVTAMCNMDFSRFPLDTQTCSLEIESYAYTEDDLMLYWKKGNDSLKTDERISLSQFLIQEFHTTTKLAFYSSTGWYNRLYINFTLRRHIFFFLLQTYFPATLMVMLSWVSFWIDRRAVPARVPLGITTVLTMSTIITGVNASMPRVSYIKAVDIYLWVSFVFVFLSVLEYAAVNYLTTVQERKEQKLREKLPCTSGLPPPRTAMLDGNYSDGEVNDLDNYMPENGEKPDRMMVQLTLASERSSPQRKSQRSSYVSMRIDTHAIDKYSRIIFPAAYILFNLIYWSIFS

Experiments:
[1] = molecular target: T1, recombinant human ρ1 GABAC receptors (Homo sapiens, UniProt P24046); assay: Inhibition curves: ginkgolides co-applied with a fixed GABA concentration, two-electrode voltage clamp in Xenopus oocytes; format: cell-based
T1 construct: expressed in transfected cells; host or cells: Xenopus laevis oocytes (cRNA injection)
Experimental: Human ρ1 GABAC receptor subunit cDNA was linearized using the restriction enzyme Xba 1 and transcribed using the “mMESSAGE mMACHINE” kit (Ambion Inc., Austin, TX, USA). RNA (10 ng/50 nl) was injected into the cytoplasm of defollicated oocytes using a 15–20 μm diameter tip glass micropipette Nanoject injector (Drummond Scientific Co., Broomali, PA, USA). The oocytes were incubated for 2–7 days at 18 °C in ND96 buffer with a twice-daily change of buffer.
Whole-cell currents from homomeric ρ1 GABAC receptors expressed in oocytes were recorded using two-electrode voltage clamp. Recording microelectrodes were fabricated with a micropipette puller (Narishige Scientific Instrument Lab, Tokyo, Japan) and filled with 3 M KCl solution. Oocytes were clamped at −60 mV and continuously superfused with ND96 buffer. […] […]. Co-applications of ginkgolides were interleaved with test applications of GABA alone to monitor the response throughout the experiment. […] A washout period of 3–5 min was allowed between each application.
Analysis and curve fitting was performed using GraphPad Prism v3.02 (GraphPad Software, San Diego, California, USA). […] […]. […] Unless otherwise noted, parameters were calculated from individual oocytes and then averaged.

[2] = molecular target: T1, recombinant human ρ1 GABAC receptors; assay: Fit of kinetic schemes 1-4 to equilibrium GABA concentration–response curves; format: cell-based
From the text: The concentration–response curves were fitted with the different mechanisms of inhibition using a least squares non-linear regression in GraphPad Prism.
The mechanism used (Fig. 7, Scheme 1) is that of [Amin and Weiss (1996)], where there are five equivalent agonist binding sites and three sites need to be occupied to activate the receptor, leading to a single open state. […] This assumes five equivalent agonist binding sites but only three are required to be occupied to activate (open) the channel pore. All subsequent kinetic schemes are derivatives of the linear scheme, by incorporating different possible mechanisms for antagonism by ginkgolides. These are drawn from the cyclic mixed-antagonism mechanism described by [Smart and Constanti (1986)]. Scheme 2 and scheme 3 both assume that ginkgolide binds to a single site in the receptor complex. […] For scheme 4, the equilibrium between the fully-liganded closed and open states is removed, which allows for the possibility that the ginkgolide binds to a separate site in the closed state compared to the open state.
Initially, a cyclic allosteric mechanism (Fig. 7, scheme 2) similar to that of [Smart and Constanti (1986)] was fit to the data. This scheme assumes a single binding site on the receptor complex that has an allosteric effect on all rate constants in the reaction mechanism. The scheme was fitted to the data allowing the agonist equilibrium constant, Ka, to be related to the equilibrium constant in the presence of ginkgolide, Ka′ by a constant ratio, R = Ka/Ka′. Similarly, the opening equilibrium constants E and E′ were related by the ratio, S = E/E′. […] As a test of the mechanism, the parameters obtained from the fit were used to predict the inhibition curves (Fig. 8D–F).
This effectively means that ginkgolide is binding at two separate sites. […] Scheme 4 is therefore functionally similar to scheme 2 with E′ having a value close to zero.

Substance: ginkgolide B
- IC50 ([1]; 0.5 μM GABA): 0.75 ± 0.07 µM
- IC50 ([1]; 1.2 μM GABA): 2.37 ± 0.22 µM
- IC50 ([1]; 3.0 μM GABA): 5.72 ± 0.63 µM
- IC50 ([1]; 10 μM GABA): 129 ± 21.6 µM
- Kd ([2]; Scheme 2, calculated, read-out: Kb0): 0.2 µM
- Kd ([2]; Scheme 2, calculated, read-out: Kb3): 4.1 µM
- Kd ([2]; Scheme 2, fitted, Ka fixed 3.2 μM, E fixed 11, read-out: Kb4 (equilibrium constant of ginkgolide, open state)): 35.2 ± 5.4 µM
- Kd ([2]; Scheme 3, calculated, read-out: Kb0): 0.3 µM
- Kd ([2]; Scheme 3, calculated, read-out: Kb3): 16.7 µM
- Kd ([2]; Scheme 4, calculated, read-out: Kb0): 0.2 µM
- Kd ([2]; Scheme 4, fitted, Ka fixed 3.2 μM, E fixed 11, read-out: Kb4 (equilibrium constant of ginkgolide, open state)): 35.2 ± 5.4 µM
- Kd ([2]; Scheme 4, printed with ±SE, read-out: Kb3): 4.1 ± 0.5 µM

Like-named read-outs stand apart in the source and are kept apart here.
